Like-named read-outs stand apart in the source and are kept apart here.
Biological target: PD-1/PD-L1 complex (Homo sapiens, UniProt Q9NZQ7)
Test: HTRF assay of PD-1/PD-L1 complex dissociation (CisBio);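 also: human PD-L1 at 5 nM with human PD-1 at 50 nM, TR-FRET signal read after 2 h at room temperature, background removed via negative control and scaled to positive control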
Conditions: for remaining activity at 5 µM: 2 h

% of undissociated complex at 5 nM (5 nM, Table S1) [%]	Structure (SMILES)	remaining activity at 5 µM (read-out: % of undissociated complex at 5 μM) [%]	remaining activity at 5 µM (read-out: HTRF % of the undissociated complex at 5 μM) [%]
53	Cc1c(COc2cc(OCc3cccc(C#N)c3)c(CN3C[C@H](O)C[C@@H]3C(=O)O)cc2Cl)cccc1-c1ccc2c(c1)OCCO2 [BMS-1166, reference compound]	–	–
–	Cc1c(-c2ccc(CO)cc2)cccc1-c1ccc2c(c1)OCCO2 [4a, (3′-(Benzo-1,4-dioxan-6-yl)-2′-methyl-[1,1′-biphenyl]-4-yl)methanol]	42	42
